Values of other authors, collected in article PMC8995271 (Targeted Oncology, 2022).

Conditions: weekly regimen, patients with ovarian cancer; cited from earlier work

In the case of carboplatin and paclitaxel, the “grade 3 and above neutropenia, patients” value is given as 42%.
